Measurements as given in patent US20110033461A1, “Combination Therapy for the Treatment of Cancer” (priority 2008, published 2011).

System: HCT116 cells
Test: viability-based synergy experiment, C1368 and cetuximab, HCT116 cells
Format: cell-based, human
Source text: In accordance with the present invention, we have determined that the combination of chemical inhibition of Aurora kinases with inhibition of EGFR results in the synergistic inhibition of cancer cell growth. In a preferred embodiment, the Aurora kinase inhibitor is selected from the group consisting of siRNA which down modulate expression of Aurora kinase, bioavailable small molecule inhibitors of Aurora kinases (both A and B), e.g., VX-680 (also known as MK0457; Vertex) PHA-680632 and PHA-739758 (Nerviano), AKI-001 (Genentech), MLN8054, MLN8237 (Millenium Pharmaceuticals), C1368 (Sigma) and the EGFR inhibitor is selected from the group consisting of erlotinib, cetuximab, gefitinib, and panitumumab. In vitro, viability-based synergy experiments detected a strong synergy between the two inhibitor agents.
To assess the applicability of our discovery to other FDA approved EGFR inhibitors, we tested the ability of EGFR-targeting antibody, cetuximab, to synergize with Sigma C1368 (FIG. 6). Cetuximab has a completely different mechanism of EGFR inhibition than erlotinib. Cetuximab binds to the cell surface domains of EGFR and causes EGFR internalization and inhibition of ligand mediated signaling. […] Strikingly, cetuximab synergistically killed HCT116 cells when given in combination (1:109 ratio) (1:8.5 ratio in μm) with C1368 (FIGS. 6C and 6D, FIG. 7 and Table 2). […]

cetuximab
inhibition of HCT116 cells, drug alone (cetuximab alone): did not cause any significant inhibition
IC50 (cetuximab with C1368, 1:109 ratio, read-out: IC50 value in combination): 100 nM
